Results from PubChem BioAssay AID493087 (The Scripps Research Institute Molecular Screening Center, 2011).
The entries are a selection whose mix differs from that of the whole data set. The source made the active and inactive calls.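 The calls were made as follows: active = activation above the mean of all tested compounds plus 3 SD, set per screening campaign (cut at about 17% in these data); inactive = the rest.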

By UniProt entry, the sequences of proteins in these tests, tags left out.
UniProt P14735, whole entry, looked up: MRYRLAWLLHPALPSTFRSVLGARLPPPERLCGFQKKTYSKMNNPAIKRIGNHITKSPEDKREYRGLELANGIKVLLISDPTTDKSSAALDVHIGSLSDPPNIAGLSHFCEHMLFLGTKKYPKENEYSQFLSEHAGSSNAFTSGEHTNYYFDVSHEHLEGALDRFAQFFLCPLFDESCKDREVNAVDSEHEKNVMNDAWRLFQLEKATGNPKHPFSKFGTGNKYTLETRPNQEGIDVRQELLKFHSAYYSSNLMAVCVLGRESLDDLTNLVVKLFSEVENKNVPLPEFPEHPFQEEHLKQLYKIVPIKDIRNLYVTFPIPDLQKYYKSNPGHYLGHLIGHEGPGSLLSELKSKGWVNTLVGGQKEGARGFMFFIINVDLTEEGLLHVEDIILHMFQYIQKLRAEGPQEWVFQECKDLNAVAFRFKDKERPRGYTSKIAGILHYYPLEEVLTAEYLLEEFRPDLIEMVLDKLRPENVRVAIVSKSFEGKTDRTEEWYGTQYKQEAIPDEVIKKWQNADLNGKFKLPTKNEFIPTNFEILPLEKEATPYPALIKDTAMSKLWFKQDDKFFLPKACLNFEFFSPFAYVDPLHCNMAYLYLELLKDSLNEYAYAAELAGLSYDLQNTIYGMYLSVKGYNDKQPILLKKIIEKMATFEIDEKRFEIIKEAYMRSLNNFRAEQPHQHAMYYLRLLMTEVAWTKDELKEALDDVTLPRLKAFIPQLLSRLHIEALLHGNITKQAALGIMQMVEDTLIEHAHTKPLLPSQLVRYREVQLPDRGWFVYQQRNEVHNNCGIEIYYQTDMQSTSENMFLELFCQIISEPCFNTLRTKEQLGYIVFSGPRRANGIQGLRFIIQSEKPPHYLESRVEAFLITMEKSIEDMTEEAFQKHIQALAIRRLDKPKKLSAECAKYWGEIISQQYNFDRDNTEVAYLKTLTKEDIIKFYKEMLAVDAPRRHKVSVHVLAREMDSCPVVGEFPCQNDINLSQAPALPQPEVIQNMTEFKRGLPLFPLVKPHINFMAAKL

Each compound was assayed against Insulin-degrading enzyme (Homo sapiens) (UniProt P14735) (assay: enhanced cellular IDE Abeta cleavage – fluorescence polarization, HEK cells, FAbeta-B substrate, primary screen (AID 493087)). Details: at 5.96 µM, active compounds read high, 0% vehicle, 100% cell-free pure enzyme wells.

Structure (SMILES) | activation
NC(=O)Nc1ccc([As](=O)(O)O)cc1 | inactive: -1.23%
CN(C)C(=O)c1cc([N+](=O)[O-])cc2c1-c1c(cc([N+](=O)[O-])cc1[N+](=O)[O-])C2=O | inactive: 0.91%
O=[N+]([O-])c1ccc2c(c1)nnn2O | inactive: 5.72%
CN(C(=O)Cc1ccc(Cl)c(Cl)c1)[C@H]1CC[C@@]2(CCCO2)C[C@@H]1N1CCCC1 | inactive: 7.71%
N#CCCN(C(=O)COC(=O)C(O)(c1ccccc1)c1ccccc1)c1ccc(F)cc1 | inactive: -0.05%
CN(C(=O)Cc1ccccc1)[C@@H]1CC[C@]2(CCCO2)C[C@H]1N1CCCC1 | inactive: 3.06%
CCOP1(=S)c2c(C)nn(CCC#N)c2N=C(c2ccc(F)cc2)N1C (configuration not stated) | inactive: 4.45%
CS(=O)(=O)c1cc([N+](=O)[O-])c2no[n+]([O-])c2c1 | inactive: -8.57%
CCOP1(=S)c2c(C)nn(CCC#N)c2N=C(c2ccccc2F)N1C (configuration not stated) | inactive: -1.76%
O=P(Nc1nccs1)(c1ccccc1)c1nc2ccccc2s1 (configuration not stated) | inactive: -62.9%
O=P(Nc1nccs1)(Oc1ccccc1)Oc1ccccc1 | inactive: 1.76%
O=C(O)COc1ccc([As](=O)(O)O)cc1[N+](=O)[O-] | inactive: 4.53%
Nc1ccccc1[As](=O)(O)c1ccccc1 | inactive: 3.88%
CCCOP(=S)(Nc1nc(N)cc(=O)[nH]1)OCCC | inactive: 3.07%
Nc1cccc2c([As](=O)(O)O)cccc12 | inactive: -0.14%
Cc1ccc(NCCc2c([N+](=O)[O-])cc([N+](=O)[O-])cc2[N+](=O)[O-])cc1 | inactive: -0.17%
COc1cc(C2NCCC3(OCCO3)C2(C)C)cc(OC)c1OC (configuration not stated) | inactive: -1.99%
CCOP(=O)(Nc1cccc2ccccc12)OCC | inactive: 0.75%
COc1cc(C(=O)NCC2(N3CCOCC3)CCCCC2)cc(Cl)c1OC(C)C | inactive: 9.27%
O=[As](O)(O)c1cccnc1 | inactive: -1.79%
CS(=O)(=O)c1ccc(Cl)c(NC(=O)COC(=O)C(O)(c2ccccc2)c2ccccc2)c1 | inactive: 2.41%
O=C(OC1CN2CCC1CC2)c1ccc(Cl)cc1 (configuration not stated) | inactive: 5.37%
O=[As](O)(c1cccc(O)c1)c1cccc(O)c1 | inactive: 2.74%
Cc1cccc(OCC(=O)OC2CN3CCC2CC3)c1 (configuration not stated) | inactive: 4.99%
COc1ccccc1CNC(=O)COC(=O)C(O)(c1ccccc1)c1ccccc1 | inactive: -2.1%
CC1(CBr)Cn2c(nc3ccccc3c2=O)S1 (configuration not stated) | inactive: 6.76%

Structure (SMILES) | activation
CN(C(=O)Cc1ccc(Cl)c(Cl)c1)[C@@H]1CCCC[C@H]1N1CCCC1 | inactive: -0.73%
CC(C)/C=N\N=C(\N)N[N+](=O)[O-] | inactive: -0.41%
CCOP(=O)(Nc1ccc(C)cn1)OCC | inactive: -1.63%
CCC1=CC2Cc3nc4ccc(Cl)cc4c(N)c3C(C1)C2 (configuration not stated) | inactive: 2.82%
O=P1(Nc2ccccn2)COc2ccccc2OC1 | inactive: 7.26%
CCOP(=O)(NC(=NC(C)c1ccccc1)NC(C)c1ccccc1)OCC (configuration not stated) | inactive: 1.85%
Clc1n[nH]nc1-c1nn[nH][15n]1 | inactive: 5.87%
CC(C)(C)C(=O)NC(Sc1ncccn1)C(Cl)(Cl)Cl (configuration not stated) | inactive: -2.86%
O=P1(Nc2ncccn2)COc2ccccc2OC1 | inactive: 2.23%
NS(=O)(=O)c1cccc(NC(=O)COC(=O)C(O)(c2ccccc2)c2ccccc2)c1 | inactive: 2.57%
O=P1(Nc2ccc(Br)cn2)COc2ccccc2OC1 | inactive: 5.87%
O=[As](O)(c1cccs1)c1cccs1 | inactive: 2.35%
Cc1ccc(OCC(=O)OC2CN3CCC2CC3)cc1 (configuration not stated) | inactive: 2.06%
Nc1cccc([As](=O)(O)c2ccccc2)c1 | inactive: 4.28%
Cc1nn(-c2ccccc2)c2c1P(=O)(N1CCOCC1)N(C)C(c1ccccc1)=N2 (configuration not stated) | inactive: 3.58%
Cc1ccc(C(=O)OC2CN3CCC2CC3)cc1 (configuration not stated) | inactive: 3.56%
CC1CCC(C(C)C)C(OP(=O)(Nc2ccccn2)c2ccccc2)C1 (configuration not stated) | inactive: -2.8%
O=C(/C=C/c1ccccc1)OC1CN2CCC1CC2 (configuration not stated) | inactive: 6.14%
CCCC1OP(=O)(Nc2ccccc2)OCC1CC (configuration not stated) | inactive: 3.51%
CN(C)C1(CNC(=O)c2ccc(S(C)(=O)=O)cc2)CCCCC1 | inactive: 4.97%
CCOC(=O)Nc1cccc([As](=O)(O)O)c1 | inactive: 4.15%
O=[N+]([O-])c1ccc(Nc2ccc(Oc3ccc([N+](=O)[O-])cc3[N+](=O)[O-])cc2)c([N+](=O)[O-])c1 | inactive: 1.27%
Cc1cc(SC(NC=O)C(Cl)(Cl)Cl)ncn1 (configuration not stated) | inactive: -3.83%
O=P(Nc1ccccn1)(c1cccc2ccccc12)c1cccc2ccccc12 | inactive: 4.2%
CC1CCNP(=O)(N(CCCl)CCCl)O1 (configuration not stated) | inactive: 1.72%
CCOC(=O)Nc1ccc([As](=O)(O)O)c(O)c1 | inactive: 1.72%

Structure (SMILES) | activation
CCCCOc1ccc(C(=O)NCC2(N3CCCCC3)CCCCC2)cc1OC | inactive: -1.05%
Cc1cc(SC(NC(=O)c2ccccc2)C(Cl)(Cl)Cl)nc(C(C)C)n1 (configuration not stated) | inactive: -7.46%
CCOC(=O)c1ccc(NC(=O)C(C)(CCl)SC)cc1 (configuration not stated) | inactive: -3.07%
O=C(OC1CN2CCC1CC2)c1cccc([N+](=O)[O-])c1 (configuration not stated) | inactive: 1.93%
CCC(C)N(CC(C)C)C(=S)SC(NC(C)=O)C(Cl)(Cl)Cl (configuration not stated) | inactive: 0.04%
COP1(=S)c2c(C)nn(CCC#N)c2N=C(c2ccc(F)cc2)N1C (configuration not stated) | inactive: -1.68%
O=C(COc1ccccc1)OC1CN2CCC1CC2 (configuration not stated) | inactive: -0.22%
O=C(Nc1ccncc1[N+](=O)[O-])c1ccc([N+](=O)[O-])cc1[N+](=O)[O-] | inactive: 5.57%
COc1ccc(N/C(=N/P(=O)(N2CCOCC2)N2CCOCC2)N2CCOCC2)cc1 | inactive: -0.61%
O=[N+]([O-])c1cc(Oc2ccc([N+](=O)[O-])cc2C(F)(F)F)cc([N+](=O)[O-])c1 | inactive: -1.28%
O=C(OC1CN2CCC1CC2)C12CC3CC(CC(C3)C1)C2 (configuration not stated) | inactive: 4.13%
Cc1cc(=O)[nH]c(N[N+](=O)[O-])n1 | inactive: 2.62%
Cc1c2c(nc3ccccc13)SC(C(Cl)Cl)C2 (configuration not stated) | inactive: -0.29%
COc1ccc2nc(NP(=O)(c3ccccc3)c3ccccc3)sc2c1 | inactive: 5.91%
COc1cc(I)ccc1[As](=O)(O)O | inactive: -0.59%
O=P1(N(CCCl)CCCl)Nc2ccccc2N1 | inactive: 2.93%
O=P1(N(CCCl)CCCl)OCCCN1CCCl (configuration not stated) | inactive: 0.53%
CC(C)c1ccc(OP(=O)(Nc2ccccn2)Oc2ccccc2F)cc1 (configuration not stated) | inactive: 1.04%
COC(=O)C1(C)COP(=O)(N2CCCCCC2)OC1 (configuration not stated) | inactive: 0.67%
ClCCSc1nnc(-c2cccnc2)o1 | inactive: 0.88%
O=C(OC1CN2CCC1CC2)c1cccc2[nH]cnc12 (configuration not stated) | inactive: 3.72%
CCN(CC)C(=S)SC(NC=O)C(Cl)(Cl)Cl (configuration not stated) | inactive: 0.3%
O=[N+]([O-])c1cc([N+](=O)[O-])c(-c2ccn[nH]2)s1 | inactive: 2.15%
C[As](=O)(O)c1cccc(C(=O)O)c1 | inactive: 6.01%
O=[As](O)(c1ccc(O)cc1)c1ccccc1O | inactive: 8%
COc1cc(C(=O)NCC2(N3CCOCC3)CCCCC2)ccc1OCC(C)C | inactive: 3.72%

Structure (SMILES) | activation
O=[N+]([O-])c1ccc(-c2cc([N+](=O)[O-])c(O)c([N+](=O)[O-])c2)cc1 | inactive: 7.55%
Cc1ccc2nc3c(c(C)c2c1)CC(C(Cl)Cl)S3 (configuration not stated) | inactive: -4.49%
Cc1ccc(OP(=O)(Nc2ccc([N+](=O)[O-])cn2)Oc2ccc(C)cc2)cc1 | inactive: 3.01%
CCN(N=Nc1nonc1N)c1nonc1N | inactive: 1.6%
Nc1cccc2ccc([As](=O)(O)O)cc12 | inactive: -3.13%
O=C(O)c1ccccc1[As](=O)(O)O | inactive: 1.31%
CC(=O)Nc1ccc([As](=O)(O)O)cc1 | inactive: -0.93%
CCCC1OP(N)(=O)OCC1CC (configuration not stated) | inactive: -3.92%
O=P(Nc1nc2ccc(Cl)cc2s1)(c1ccccc1)c1ccccc1 | inactive: 2.25%
CCOP(=O)(Nc1ccccc1)OCC | inactive: -6.49%
Cc1cc(SC(NC(=O)c2ccc(F)cc2)C(Cl)(Cl)Cl)ncn1 (configuration not stated) | inactive: -13.6%
CN(C(=O)Cc1ccc(Cl)c(Cl)c1)[C@H]1CCCC[C@@H]1N1CCCC1 | inactive: -0.41%
Cc1ccc(NP(=O)(Oc2ccccc2F)Oc2ccccc2F)nc1 | inactive: 3.94%
CC(C)CC(=O)NC(Sc1ccc(Cl)cc1)C(Cl)(Cl)Cl (configuration not stated) | inactive: -1.83%
Nc1cc(N)c2nonc2c1[N+](=O)[O-] | inactive: 2.98%
Oc1ccccc1CNc1ccccn1 | inactive: 7.5%
O=C(NC(Sc1ccncn1)C(Cl)(Cl)Cl)c1ccccc1 (configuration not stated) | inactive: -1.62%
NC(=O)c1cc([N+](=O)[O-])cc([N+](=O)[O-])c1N | inactive: -3.97%
CN(C(=O)Cc1ccc(Cl)c(Cl)c1)[C@H]1CCCC[C@H]1N1CCCC1 | inactive: 5.98%
Cc1ccc(N/C(=N/P(=O)(N2CCOCC2)N2CCOCC2)N2CCOCC2)cc1 | inactive: -2.25%
COc1ccccc1OP(=O)(Nc1ccc(C)cn1)Oc1ccccc1OC | inactive: 6.44%
Clc1ccc(Cl)c(NC2=NCC(CBr)S2)c1 (configuration not stated) | inactive: 6.56%
CN1CCCC(OC(=O)C(c2ccccc2)c2ccccc2)C1 (configuration not stated) | inactive: -1.72%
Nc1ccc([As](=O)(O)c2ccc(N)cc2)cc1 | inactive: 5.79%
